Test results as given in patent US20060165708A1, “Cancer vaccine containing cancer antigen based on tumor suppressor gene wt1 product and cationic liposomes” (Chugai Seiyaku Kabushiki Kaisha, priority 2001, published 2006).

Tests used:
[1] = molecular target: K^b or D^b of mouse MHC class I; experiment: Binding affinity of WT1 peptides for mouse MHC class I; conditions: in words only, no numbers given
Excerpt: In accordance with the present invention, as a basis for designing cancer antigen peptides, K^b and D^b of mouse MHC class I as well as A0201 of human HLA were selected, and peptides estimated to have a high affinity with them were selected.
Based on the description in Immunogenetics 41:178-228 (1995), Phe and Try at position 5 as well as Leu and Met etc. at position 8 are expected to be the anchor amino acids for binding to K^b, and Asn at position 5 as well as Met and Ile etc. at position 9 are expected to be the anchor amino acids for binding to D^b.

[2] = test system: C1498 cells; experiment: Anti-tumor effect after immunization, tumor not expressing WT1; type: in vivo, C57BL/6 mice; conditions: FIG. 2 B
Excerpt: As the tumor model, WT1 gene-introduced C1498 cells (C1498muWT1 cells) were used; as the immunization animal, C57BL/6 mice were used; and as the model cancer antigen, the peptide D^b 126 was used. Thus, C57BL/6 mice were immunized three times weekly by subcutaneous administration, to the back thereof, of the same mixture as in Example 1 of the cancer antigen peptide D^b 126 and lipofectin (LPF) (10 nmol/mouse), or by the intraperitoneal administration of lipopolysaccharide-blast (LPS-blast) (1 ml), and one week after the final immunization C1498muWT1 cells or C1498 cells were intraperitoneally transplanted at an amount of 2×10^6 cells/100 ml. The effect of tumor vaccine was determined daily, and was evaluated by calculating tumor size using the following equation: [Tumor size]=[(long diameter)×(short diameter)^2]^1/3
In each group, the experiment was terminated when tumor size reached 20 mm.
Furthermore, in order to confirm that this anti-tumor effect is WT1-specific, a similar study was carried out using C1498 cells that are not expressing WT1. […] Therefore, it was confirmed that the above anti-tumor effect is WT1-specific.

binding affinities (Kd values) for K^b or D^b [1]: highest binding affinity
Sequence: RMFPNAPYL [D^b 126, Arg Met Phe Pro Asn Ala Pro Tyr Leu]
anti-tumor effect (tumor size) compared with non-immunized group [2]: no differences seen from the non-immunized group
